The assay relates to Male Sprague Dawley rats. Description: Conditioned avoidance response (CAR). It is filed as in vivo. Conditions: ABM300 10 mg/kg, olanzapine 1 mg/kg i.p. daily. On the procedure:
Male Sprague Dawley rats (PD>63) were trained on a CAR protocol and responding following drug exposure was determined. […] Animals were trained to learn a house light (CS) as predictive of an avoidable 0.6mA scrambled foot shock (US). Each session consisted of 50 trials and animals avoided >70% of trials on the final acquisition session were tested for CAR during vehicle baseline, drug exposure, and re-emergence. In addition to CAR testing, both temperature and catalepsy were recorded in these animals (measure of potential CB1R agonism). Temperature: recorded on first day of drug exposure, prior to injection and 60-90-min. following drug exposure.

The values that follow come from paper PMC7852560 (Neuropsychopharmacology, 2020).

As to `CCc1c(-c2nnc(Nc3ccccc3)o2)[nH]c2ccc(Cl)cc12` [ABM300, 5-(5-chloro-3-ethyl-1H-indol-2-yl)-N-phenyl-1,3,4-oxadiazol-2-amine], the “escape failures in CAR” value was “neither ABM300 nor olanzapine affected escape failures” and the “escape responding during CAR” value is reported as “but not ABM300, enhanced escape responding”.
